# Biological target: T1, A2A receptor in rat striatum (Rattus norvegicus, UniProt P30543)
# Amino acid sequences for entries named in this document (tags omitted). A change or cut given only in a name is not applied to a line headed by its entry.
# UniProt P30543, whole entry: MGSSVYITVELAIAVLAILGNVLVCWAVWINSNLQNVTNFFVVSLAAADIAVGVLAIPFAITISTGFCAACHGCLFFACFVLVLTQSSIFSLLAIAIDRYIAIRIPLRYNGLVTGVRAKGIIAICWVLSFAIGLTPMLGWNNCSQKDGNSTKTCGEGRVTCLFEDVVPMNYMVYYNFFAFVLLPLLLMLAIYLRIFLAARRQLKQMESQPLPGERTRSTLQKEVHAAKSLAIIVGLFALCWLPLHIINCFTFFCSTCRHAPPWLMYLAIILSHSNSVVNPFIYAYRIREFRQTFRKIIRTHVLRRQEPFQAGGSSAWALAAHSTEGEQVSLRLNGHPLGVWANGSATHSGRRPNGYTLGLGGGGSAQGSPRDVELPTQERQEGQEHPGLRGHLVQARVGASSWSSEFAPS
# T1 construct: the A2A receptor in rat striatum; from tissue; host or cells: rat striatum
# Experiment: Radioligand binding, displacement of [3H]ZM241385 from rat striatal membranes;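 further: displacement assays run in the absence of GTP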
# Conditions: [3H]ZM241385, rat striatal membranes
structure (smiles),measurement,value
"Nc1nc(I)nc2c1ncn2[C@@H]1O[C@H](CO)[C@@H](O)[C@H]1O [Compound 1, 2-Iodoadenosine]",Ki,4.2 ± 0.08 µM

# Reference: US7084127B2, “C2,5′-disubstituted and N6, C2,5′-trisubstituted adenosine derivatives and their different uses” (Universiteit Leiden, priority 2001, dated 2006)
